Measured values published in paper PMC7021470 (mSphere, 2020).

Target: T1, E. faecalis metalloprotease GelE (bacterial supernatants) (Enterococcus faecalis, UniProt Q833V7)
T1 sequence (Q833V7 whole entry, looked up): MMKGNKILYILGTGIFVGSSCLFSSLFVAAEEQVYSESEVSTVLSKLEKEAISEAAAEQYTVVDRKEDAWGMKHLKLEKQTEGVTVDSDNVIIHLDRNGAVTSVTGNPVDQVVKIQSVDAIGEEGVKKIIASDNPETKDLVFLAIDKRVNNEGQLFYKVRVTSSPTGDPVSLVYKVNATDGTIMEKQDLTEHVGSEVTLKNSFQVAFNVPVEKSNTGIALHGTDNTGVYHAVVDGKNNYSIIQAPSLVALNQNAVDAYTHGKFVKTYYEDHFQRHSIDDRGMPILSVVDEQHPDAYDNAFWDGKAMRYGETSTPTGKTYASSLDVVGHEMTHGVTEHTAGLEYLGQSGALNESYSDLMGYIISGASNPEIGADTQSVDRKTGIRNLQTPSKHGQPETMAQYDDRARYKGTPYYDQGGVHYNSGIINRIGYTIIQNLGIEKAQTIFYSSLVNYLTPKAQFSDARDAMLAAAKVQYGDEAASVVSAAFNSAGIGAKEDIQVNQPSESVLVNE
Conditions: E. faecalis 30054A supernatant, 1x (undiluted); recombinant substrate; 4 h at room temperature; Luminex (Milliplex) read-out; mean ± SD, n = 3 independent experiments
Experimental: To gain a better understanding of the substrate preference of GelE, we also tested the ability of diluted supernatants of E. faecalis 30054A, from 1 to 0.0001×, to degrade the same panel of metabolic substrates (Table 1).
Bacterial supernatants were collected from an overnight culture by centrifugation as described above, diluted in bacterial culture medium as indicated, and incubated with recombinant protein (GenScript; Sigma, Tocris) of each analyte for 4 h at room temperature, followed by storage at –80°C until ready for analyte quantification. The Milliplex multiplex assay was run according to the protocol provided by the manufacturer.

monocyte chemoattractant protein-1 [MCP-1]
quantity (%) of substrate remaining after incubation with supernatant, dilution 1x: 35.14 ± 14.14%

tumor necrosis factor alpha [TNFα]
quantity (%) of substrate remaining after incubation with supernatant, dilution 1x: 39.73 ± 8.05%
